Assay results published in patent US11819489B2 (priority 2017, dated 2023).
Several values for one entry are separate records, joined by “and”; a condition that tells them apart may be missing. Identical values can stand only once.

How the values were obtained:
[1] = test system: human peripheral blood mononuclear cells (hPBMC); assay: MTT cytotoxicity assay on hPBMC; settings: 24-h treatment, MTT
HL-60 cells = assay: MTT cytotoxicity assay on HL-60 cells; settings: HL-60 cells, 24-h treatment, MTT
[2] = test system: Chinese hamster (CH) solid tumour cells; assay: MTT cytotoxicity assay on Chinese hamster solid tumour cells; settings: 24-h treatment
HepG2 cells [3] = assay: MTT cytotoxicity assay on HepG2 cells; settings: 24-h treatment
HepG2 cells [4] = assay: Cellular As uptake, HepG2 cells; assay type: cell-based, human; settings: 24-h treatment, 1.5 μM As
K562 cells = assay: MTT cytotoxicity assay on K562 cells; settings: for IC50: K562 cells, 24-h treatment
KARPAS 45 cells = assay: MTT cytotoxicity assay on KARPAS 45 cells
Kasumi-1 cells = assay: MTT cytotoxicity assay on Kasumi-1 cells; settings: 24-h treatment
[5] = triplicate MTT assays (Table 15)

O=[As]c1ccccc1 (stereo not drawn)
IC50 [1]: 9.3 µM and 9 µM
IC50 (HL-60 cells): 1.5 µM
IC50 [2]: 1.49 µM
IC50 (HepG2 cells [3]): 0.63 µM
cellular As concentration in HepG2 cells, times greater than in HL-60 cells (HepG2 cells [4]): 7.6 times
cellular As concentration in HepG2 cells, times greater than in Kasumi-1 cells (HepG2 cells [4]): 3.9 times
cellular As concentration in HepG2 cells, times higher than in K562 cells (HepG2 cells [4]): 3.8 times
cellular As concentration in HepG2 cells, times higher than in KARPAS 45 cells (HepG2 cells [4]): 4.8 times
cellular As concentration in HepG2 cells, times higher than in hPBMC (HepG2 cells [4]): 2.2 times
relative toxicity / IC50 versus another compound, in words (comparator in the value) (K562 cells; K562, 24-h treatment): three times more toxic than ATO
IC50 (K562 cells; MTT): 3.4 µM
IC50 (K562 cells; [5]): 3.40 ± 0.42 PM
relative toxicity / IC50 versus another compound, in words (comparator in the value) (KARPAS 45 cells; KARPAS 45, 24-h treatment): approximately three times more toxic than ATO
IC50 (KARPAS 45 cells; KARPAS 45 cells, 24-h treatment, MTT): 5.1 µM and 5 µM
IC50 (Kasumi-1 cells): 5.1 µM

Arsenic(III) triiodide
IC50 (K562 cells; MTT): 18.1 µM
IC50 (K562 cells; [5]): 18.14 ± 0.75 PM

O=[As](O)(O)c1ccc(I)cc1
toxicity of the two HPLC fractions / isomers compared (K562 cells; K562, preliminary toxicity studies): elicited the same toxicity
